Only a part is listed here, and it is no random draw. Active and inactive are the calls of the source.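 Rule for the calls: active = plate-corrected calcium response at least 3 library SD above typical, normal starting fluorescence, not activating the receptor alone; inactive = the rest.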

Protein sequences, listed by entry. Tags and fused reporters are not part of them.
UniProt Q96LB2, whole entry: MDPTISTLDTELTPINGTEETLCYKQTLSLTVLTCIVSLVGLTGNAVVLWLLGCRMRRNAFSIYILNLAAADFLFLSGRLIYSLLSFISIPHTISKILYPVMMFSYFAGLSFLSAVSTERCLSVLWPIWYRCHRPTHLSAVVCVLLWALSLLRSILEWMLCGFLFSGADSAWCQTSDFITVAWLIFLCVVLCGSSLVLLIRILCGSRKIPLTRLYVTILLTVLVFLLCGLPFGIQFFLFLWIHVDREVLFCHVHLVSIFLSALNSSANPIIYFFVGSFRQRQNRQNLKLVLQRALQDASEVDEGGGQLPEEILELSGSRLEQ

This assay deals with Mas-related G-protein coupled receptor member X1 (Homo sapiens) (UniProt Q96LB2). Description: positive allosteric modulators of MrgX1, primary screen, HEK293 cells, Fluo-4 calcium flux (AID 588675).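 For B-score: peak minus trough fluorescence over baseline measured at the second addition.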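 Note: compound read alongside a low EC10 to EC30 dose of BAM8-22 agonist.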 The note with it: MrgX1-HEK293, Fluo-4 calcium flux, FDSS, at 10 µM; hits give high values. On the technique in general: A change in cytosolic calcium serves as a functional read-out for many receptors and channels.
Regarding `COc1cc(C(=O)NCC2(N3CCCCC3)CCCCC2)ccc1OC(F)F`, the result was inactive.
As for `O=C(NCC1(N2CCOCC2)CCCCC1)c1cc(=O)[nH]c2ccccc12`, the outcome was inactive.
The same measure, in the same setting: in the case of `CN1CCN(CCOC(=O)C(O)(c2ccccc2)c2ccccc2)CC1` it was “inactive”.
For the compound `COc1ccc(NC2CCN(C(=O)OC(C)(C)C)CC2)cc1`, the outcome was inactive.
Still for that read-out and setting: in the case of `O=C(NCC1(N2CCCCC2)CCCCC1)c1cccc(C(F)(F)F)c1` it was “inactive”; in that of `N#CC1(Nc2ccccc2)CCN(CCc2ccccc2)CC1`, “inactive”; in that of `CCN1CCC(Nc2ccc(Cl)cc2)CC1`, “inactive”.
Turning to `O=C(NCC1(N2CCCCC2)CCCCC1)c1cccc([N+](=O)[O-])c1`, the result was inactive.
With `O=C(NCC1(N2CCCCC2)CCCCC1)c1ccc(OC(F)F)cc1`, the outcome was inactive.
Still for that read-out and setting: in the case of `CCCOc1ccc(C(=O)NCC2(N(C)C)CCCCC2)cc1OC` it was “inactive”; in that of `CN1CCC(Nc2cccc(F)c2)CC1`, “inactive”.
Same read-out and setting: under `COc1cc(OC)c(C(=O)NCC2(N(C)C)CCCCC2)cc1OC` stands “inactive”; under `CC(C)c1ccc(NC2CCN(C(=O)OC(C)(C)C)CC2)cc1`, “inactive”.
Still for that read-out and setting: under `CN(C)c1cccc(C(=O)NCC2(N3CCCCC3)CCCCC2)c1` stands “inactive”.
Regarding `COc1ccc(CN(CCCl)CCCl)cc1Cl`, the result was inactive.
Regarding `O=C(OC1CN2CCC1CC2)C1c2ccccc2Oc2ccccc21` (centres undefined), the outcome was inactive.
In the case of `N#CC1(Nc2ccccc2)CCN(Cc2ccccc2)CC1`, the result was inactive.
With `CCOC(=O)N1CCC(Nc2ccc(OC)cc2)CC1`, the outcome was inactive.
Still for that read-out and setting: under `Cc1cc(C)cc(N(C(=O)c2ccccc2)C2CCN(C(=O)OC(C)(C)C)CC2)c1` stands “inactive”; under `O=C(NCC1(N2CCCCC2)CCCCC1)c1ccc(Cl)nc1`, “inactive”; under `O=C(NCC1(N2CCOCC2)CCCCC1)c1cc2ccccc2o1`, “inactive”.
Same read-out and setting: in the case of `CSc1ccccc1C(=O)NCC1(N2CCCCC2)CCCCC1` it was “inactive”.
In the case of `COc1ccc(C(=O)NCC2(N3CCCCC3)CCCCC2)c(OC)c1OC`, the result was inactive.
Take `CC(C)(C)OC(=O)N1CCC(N(C(=O)c2ccccc2)c2ccc(F)cc2)CC1`: the outcome was inactive.
Still for that read-out and setting: under `COc1ccc(C(=O)NCC2(N3CCCCC3)CCCCC2)cc1` stands “inactive”.
For the compound `O=C(NCC1(N2CCCCC2)CCCCC1)c1cccs1`, the result was inactive.
Still for that read-out and setting: under `O=C(NCC1(N2CCCCC2)CCCCC1)c1ccc(=O)[nH]c1` stands “inactive”; under `Cc1ccc(OCC(C)C)c(CN(CCCl)CCCl)c1`, “inactive”.
On the same count and under the same terms, in the case of `COc1cc(C(=O)NCC2(N(C)C)CCCCC2)ccc1OC(F)F` it was “inactive”; in that of `CCOC(=O)N1CCC(Nc2cccc(C)c2)CC1`, “inactive”.
Still for that read-out and setting: in the case of `COc1ccc(NC2CCN(CCc3ccccc3)CC2)c(OC)c1` it was “inactive”; in that of `CCOC(=O)N1CCC(Nc2ccc(F)cc2)CC1`, “inactive”.
In the case of `O=C(NCC1(N2CCCCC2)CCCCC1)c1ccc(F)cc1`, the result was inactive.
The same measure, in the same setting: under `CCOc1ccc(C)cc1CN(CCCl)CCCl` stands “inactive”; under `CN(C)c1ccc(C(=O)NCC2(N3CCCCC3)CCCCC2)cc1`, “inactive”; under `CCN1CCC(Nc2cccc(F)c2)CC1`, “inactive”.
On the same count and under the same terms, under `Fc1ccccc1NC1CCN(Cc2ccccc2)CC1` stands “inactive”.
Still for that read-out and setting: in the case of `Cc1ccc(C(=O)NCC2(N3CCCCC3)CCCCC2)o1` it was “inactive”.
For `COc1cc(OC)cc(C(=O)NCC2(N3CCCCC3)CCCCC2)c1`, the outcome was inactive.
Regarding `CN1CCC(Nc2ccc(Cl)cc2)CC1`, the result was inactive.
The same measure, in the same setting: under `CCCOc1ccc(C)cc1CN(CCCl)CCCl` stands “inactive”; under `COc1cc(OC)cc(C(=O)NCC2(N3CCOCC3)CCCCC2)c1`, “inactive”; under `COc1cccc(C(=O)N(c2cc(C)cc(C)c2)C2CCN(C(=O)OC(C)(C)C)CC2)c1`, “inactive”.
The same measure, in the same setting: under `CCC(CO)(C(=O)OC1CN2CCC1CC2)c1ccccc1` (centres undefined) stands “inactive”; under `O=C(O)C1(Nc2ccccc2)CCN(Cc2ccccc2)CC1`, “inactive”; under `CC(C)(C)OC(=O)N1CCC(Nc2ccccc2)CC1`, “inactive”.
Same read-out and setting: under `CCCOc1ccc(C(=O)NCC2(N(C)C)CCCCC2)cc1` stands “inactive”; under `CN1CCC(Nc2ccc(F)c(Cl)c2)CC1`, “inactive”; under `CCOc1ncccc1C(=O)NCC1(N2CCOCC2)CCCCC1`, “inactive”.
On to `O=C(OC1CN2CCC1CC2)C1c2ccccc2C=Cc2ccccc21` (centres undefined), for which the result was inactive.
For the compound `CCc1cc(C(=O)NCC2(N3CCCCC3)CCCCC2)sc1C`, the B-score was active: 7.72.
Turning to `CCOC(=O)N1CCC(Nc2ccc(C)cc2)CC1`, the result was inactive.
Still for that read-out and setting: under `N/C(=N\O)c1c(N)no[n+]1[O-]` stands “inactive”; under `COc1ccc(C(=O)NCC2(N3CCOCC3)CCCCC2)cc1OC`, “inactive”; under `CN(C)C1(CNC(=O)c2cccc(C#N)c2)CCCCC1`, “inactive”.
On the same count and under the same terms, in the case of `CCCN1CCC(Nc2cc(OC)cc(OC)c2)CC1` it was “inactive”; in that of `c1ccc(CN2CCC(Nc3ccccc3)CC2)cc1`, “inactive”.
The same measure, in the same setting: under `N#Cc1ccc(C(=O)NCC2(N3CCCCC3)CCCCC2)cc1` stands “inactive”; under `CC(C)(C)OC(=O)N1CCC(N(C(=O)c2ccccc2)c2ccc(Cl)cc2)CC1`, “inactive”.
